According to ChEMBL document CHEMBL1781947, “Structure-activity studies on the nociceptin/orphanin FQ receptor antagonist 1-benzyl-N-{3-[spiroisobenzofuran-1(3H),4'-piperidin-1-yl]propyl} pyrrolidine-2-carboxamide” (Bioorg Med Chem, 2009):

Target: Nociceptin receptor (Homo sapiens, UniProt P41146)
Assay: Displacement of [3H]N/OFQ from human recombinant NOP receptor expressed in CHO cells

SMILES | pKi
CCn1c(=O)n(C2CCN(CCCNC(=O)[C@H]3CCCN3Cc3ccccc3)CC2)c2ccccc21 | < 5
O=C(NCCCN1CCC2(CC1)C(=O)NCN2c1ccccc1)[C@H]1CCCN1Cc1ccccc1 | < 5
